According to paper PMC4059246 (Journal of Medicinal Chemistry, 2014):

Tested on: RPA194

CCN(CCN(C)C)C(=O)c1cccn2c(=O)c3cc4ccccc4cc3nc12 [Compound 19, N-[2-(Dimethylamino)ethyl]-N-ethyl-12-oxo-12H-benzo[g]pyrido[2,1-b]quinazoline-4-carboxamide]
Decrease in potency relative to compound 2: either inactive or caused >400-fold decrease in potency
